Drawing on PMC4520770, this text covers Kd for one substance.

Amino acid sequences for entries named in this document (tags omitted). A change or cut given only in a name is not applied to a line headed by its entry.
UniProt O43521: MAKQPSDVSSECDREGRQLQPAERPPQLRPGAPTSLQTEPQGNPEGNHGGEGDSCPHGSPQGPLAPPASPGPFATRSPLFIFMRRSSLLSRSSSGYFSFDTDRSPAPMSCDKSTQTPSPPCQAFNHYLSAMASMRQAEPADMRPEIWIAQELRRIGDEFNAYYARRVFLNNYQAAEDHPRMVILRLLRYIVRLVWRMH

In this test the target is Bim_R3bS (UniProt O43521). As to the kind of experiment: fluorescence polarisation. A general note: Fluorescence polarisation rises when a labelled molecule tumbles more slowly, as on binding a larger partner.

The term Kd denotes the free concentration of one partner at which half of the binding sites on the other are occupied at equilibrium, for simple one-to-one binding. Low readings indicate higher affinity, high ones lower affinity. “M11 (murine gamma herpesvirus γHV68 Bcl-2 homolog), BAP- and His6-tagged (from UniProt P89884 1-171) (natural protein)” returned a dissociation constant Kd of 210 nM.
